The values that follow come from ChEMBL document CHEMBL3875191, “Enhanced potency of bivalent small molecule gp41 inhibitors” (Bioorg Med Chem, 2017).

Test [1] relates to HL2/3. The test is described as follows: Inhibition of HIV1 gp41-induced cell-cell fusion between HXB2 viral envelope expressing human HL2/3 cells to CXCR4-tropic expressing TZM-bl cells after 6 hrs by LTR luciferase reporter gene assay. It is filed as cell-based. The settings on record: Human immunodeficiency virus 1. The essentials:
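TZM-bl target cells (CD4, CCR5, CXCR4; HIV-1 LTR-driven firefly luciferase) at 25,000/well, cultured overnight, then given serially diluted inhibitor. 50,000 HL2/3 effector cells (HXB2 Env, Tat, Rev) were added and fusion ran 6 h in reduced-serum medium with 1% DMSO final. Luciferase was read, with 1% DMSO controls with and without HL2/3, in triplicate.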

The test system of test [2] is Human immunodeficiency virus 1.
Test [3] is described as follows: (§1) Inhibition of HIV1 Ba-L gp41-induced virus-cell fusion between HIV1 Ba-L to MAGI cells expressing CCR5-tropic treated 3 hrs post infection measured after 48 hrs by beta-galactosidase based chemiluminescence assay. The settings on record: Human immunodeficiency virus 1, Ba-L.
In test [4] the test system is MAGI. The description is as §1. As to conditions: Human immunodeficiency virus 1.
Test [5] in a line: (§2) Inhibition of HIV1 3B gp41-induced virus-cell fusion between HIV1 3B to MAGI cells expressing CXCR4-tropic treated 3 hrs post infection measured after 48 hrs by beta-galactosidase based chemiluminescence assay. As to conditions: Human immunodeficiency virus 1, 3B.
Test [6] has as its system MAGI. The test is described as §2. As to conditions: Human immunodeficiency virus 1.
The test system of test [7] is Human immunodeficiency virus 1. This is another data set of the same source.
For test [8], the system named is Human immunodeficiency virus 1. This is another data set of the same source.
Test [9] in a line: Inhibition of fluorescently labeled C-terminal HR2 probe peptide binding to wild type HIV-1 Fe(env2.0)3 peptide model of gp41 hydrophobic pocket assessed as inhibition constant for first binding interaction at compound to protein ratio of 1:2 by fluorescence assay. More on the design: species or system Human immunodeficiency virus 1.
Test [10] can be described thus: Inhibition of fluorescently labeled C-terminal HR2 probe peptide binding to wild type HIV-1 Fe(env2.0)3 peptide model of gp41 hydrophobic pocket assessed as inhibition constant for second binding interaction at compound to protein ratio of 1:2 by fluorescence assay. More on the design: species or system Human immunodeficiency virus 1.

For the compound `O=C(CCc1c[nH]c2ccccc12)NCCCCCC(=O)Nc1ccc(C(=O)N[C@@H](Cc2c[nH]c3ccccc23)C(=O)O)cc1OCc1ccc(Cl)cc1`, the 90% effect level in [1] (IC90) was put at 5.6 µM. The compound further came in with a Ka in test [2] of 1.37 ×10⁴ /M/s.

`O=C(CCc1c[nH]c2ccccc12)NCCCCCC(=O)Nc1ccc(C(=O)N[C@@H](Cc2c[nH]c3ccccc23)C(=O)O)cc1OCCc1c[nH]c2ccccc12` showed a 90% effect concentration (IC90) in [1] of 15.1 µM. Further, the Ka in [2] worked out at 1.1 ×10⁴ /M/s.

The compound `Nc1ccc(C(=O)N[C@@H](Cc2c[nH]c3ccccc23)C(=O)O)cc1OCCc1c[nH]c2ccccc12` registered a Ka in test [2] of 5.1 ×10⁴ /M/s.

On to `Nc1ccc(C(=O)N[C@@H](Cc2c[nH]c3ccccc23)C(=O)O)cc1OCc1ccc(Cl)cc1`, for which the IC50 in test [3] and in test [5] was more than 50 µM in each case. In addition, the IC90 in test [4] is more than 50 µM; in test [1], 49 µM; in test [6], more than 50 µM. In [2], the Ka is 6.7 ×10⁴ /M/s.

On to `O=C(CCC(=O)Nc1ccc(C(=O)N[C@@H](Cc2c[nH]c3ccccc23)C(=O)O)cc1OCCc1c[nH]c2ccccc12)NCCOCCOCCOCCNC(=O)CCC(=O)Nc1ccc(C(=O)N[C@@H](Cc2c[nH]c3ccccc23)C(=O)O)cc1OCCc1c[nH]c2ccccc12`, for which the 90% effect level in [1] (IC90) was put at 6.3 µM. The figures for the Ka in test [7], in test [2] and in test [8] were 2690 M⁻¹ s⁻¹, 0.37 ×10⁴ /M/s and 4.54 ×10⁻⁵ /RU/s, respectively.

As to `O=C(CCC(=O)Nc1ccc(C(=O)N[C@@H](Cc2c[nH]c3ccccc23)C(=O)O)cc1OCc1ccc(Cl)cc1)NCCOCCOCCOCCNC(=O)CCC(=O)Nc1ccc(C(=O)N[C@@H](Cc2c[nH]c3ccccc23)C(=O)O)cc1OCc1ccc(Cl)cc1`, in test [3], it took 4.7 µM to reach half-maximal inhibition (IC50). In addition, the IC90 in test [4] was determined as 18.3 µM; in [1], 4.4 µM; in test [6], 20.8 µM. Moreover, the Ki was 21 µM in test [9] and 1300 nM in test [10]. The Ka stood at 1490 M⁻¹ s⁻¹ in test [7], 0.18 ×10⁴ /M/s in test [2] and 2.27 ×10⁻⁵ /RU/s in test [8].

By IC90 is commonly meant the point of the concentration-response curve where the effect stands at 90%. Read a high IC90 as a need for much substance. As usually defined, the IC50 is the concentration that gives 50% inhibition. A lower IC50 goes with greater potency. For orientation: Ki means a measure of affinity in units of concentration, obtained from inhibition or displacement.
